Data as given in article PMC12102759 (Protein Science : A Publication of the Protein Society, 2025).

The chains behind the UniProt entries cited, without tags or fusion partners. Residues count along the entry.
UniProt Q9Y490, 309-401: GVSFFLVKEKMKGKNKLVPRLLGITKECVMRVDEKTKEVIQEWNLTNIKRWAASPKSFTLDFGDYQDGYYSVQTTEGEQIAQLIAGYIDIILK

Molecular target: TLN1 PTB (Homo sapiens, UniProt Q9Y490)
Format: binding

TDERSWVYSPLHYS(averaged) Y13T (TDERSWVYSPLHTS)
DMS-derived PSSM value, averaged over the two overlapping peptides: 0.02134

FPTDERSWVYSPLHYS P12G (FPTDERSWVYSGLHYS)
DMS-derived PSSM value of the single-substitution variant: 0.1798

TDERSWVYSPLHYS(averaged) D2F (TFERSWVYSPLHYS)
DMS-derived PSSM value, averaged over the two overlapping peptides: 0.04563

FPTDERSWVYSPLHYS S7A (FPTDERAWVYSPLHYS)
DMS-derived PSSM value of the single-substitution variant: 0.008837

TDERSWVYSPLHYS(averaged) W6A (TDERSAVYSPLHYS)
DMS-derived PSSM value, averaged over the two overlapping peptides: 0.02329

FPTDERSWVYSPLHYS P2Y (FYTDERSWVYSPLHYS)
DMS-derived PSSM value of the single-substitution variant: 0.01746

FPTDERSWVYSPLHYS V9Q (FPTDERSWQYSPLHYS)
DMS-derived PSSM value of the single-substitution variant: 0.01572

FPTDERSWVYSPLHYS P2I (FITDERSWVYSPLHYS)
DMS-derived PSSM value of the single-substitution variant: 0.004328

TDERSWVYSPLHYS(averaged) S5V (TDERVWVYSPLHYS)
DMS-derived PSSM value, averaged over the two overlapping peptides: 0.01272

TDERSWVYSPLHYS(averaged) L11V (TDERSWVYSPVHYS)
DMS-derived PSSM value, averaged over the two overlapping peptides: 0.05342

TDERSWVYSPLHYSAQ H12W (TDERSWVYSPLWYSAQ)
DMS-derived PSSM value of the single-substitution variant: 0.008167

TDERSWVYSPLHYS(averaged) T1D (DDERSWVYSPLHYS)
DMS-derived PSSM value, averaged over the two overlapping peptides: 0.03384

FPTDERSWVYSPLHYS L13A (FPTDERSWVYSPAHYS)
DMS-derived PSSM value of the single-substitution variant: 0.02593

TDERSWVYSPLHYSAQ Y13T (TDERSWVYSPLHTSAQ)
DMS-derived PSSM value of the single-substitution variant: 0.01355

TDERSWVYSPLHYSAQ T1H (HDERSWVYSPLHYSAQ)
DMS-derived PSSM value of the single-substitution variant: 0.02118

FPTDERSWVYSPLHYS Y15F (FPTDERSWVYSPLHFS)
DMS-derived PSSM value of the single-substitution variant: 0.1806

TDERSWVYSPLHYS(averaged) S5N (TDERNWVYSPLHYS)
DMS-derived PSSM value, averaged over the two overlapping peptides: 0.006865

TDERSWVYSPLHYS(averaged) S5W (TDERWWVYSPLHYS)
DMS-derived PSSM value, averaged over the two overlapping peptides: 0.02341

TDERSWVYSPLHYSAQ S5M (TDERMWVYSPLHYSAQ)
DMS-derived PSSM value of the single-substitution variant: 0.07254

FPTDERSWVYSPLHYS Y10V (FPTDERSWVVSPLHYS)
DMS-derived PSSM value of the single-substitution variant: 0.06161

FPTDERSWVYSPLHYS S7R (FPTDERRWVYSPLHYS)
DMS-derived PSSM value of the single-substitution variant: 0.1131

TDERSWVYSPLHYSAQ A15F (TDERSWVYSPLHYSFQ)
DMS-derived PSSM value of the single-substitution variant: 0.0008689

TDERSWVYSPLHYS(averaged) S14E (TDERSWVYSPLHYE)
DMS-derived PSSM value, averaged over the two overlapping peptides: 0.02604

FPTDERSWVYSPLHYS Y10F (FPTDERSWVFSPLHYS)
DMS-derived PSSM value of the single-substitution variant: 0.05635

TDERSWVYSPLHYSAQ V7E (TDERSWEYSPLHYSAQ)
DMS-derived PSSM value of the single-substitution variant: 0.02073

TDERSWVYSPLHYSAQ Y13Y
DMS-derived PSSM value of the single-substitution variant: 0.1302

TDERSWVYSPLHYSAQ A15N (TDERSWVYSPLHYSNQ)
DMS-derived PSSM value of the single-substitution variant: 0.01181

TDERSWVYSPLHYSAQ E3Y (TDYRSWVYSPLHYSAQ)
DMS-derived PSSM value of the single-substitution variant: 0.02785

TDERSWVYSPLHYS(averaged) V7Q (TDERSWQYSPLHYS)
DMS-derived PSSM value, averaged over the two overlapping peptides: 0.01435

TDERSWVYSPLHYS(averaged) R4M (TDEMSWVYSPLHYS)
DMS-derived PSSM value, averaged over the two overlapping peptides: 0.01622

FPTDERSWVYSPLHYS S16W (FPTDERSWVYSPLHYW)
DMS-derived PSSM value of the single-substitution variant: 0.005315

FPTDERSWVYSPLHYS R6G (FPTDEGSWVYSPLHYS)
DMS-derived PSSM value of the single-substitution variant: 0.00648

TDERSWVYSPLHYSAQ E3F (TDFRSWVYSPLHYSAQ)
DMS-derived PSSM value of the single-substitution variant: 0.08854

TDERSWVYSPLHYS(averaged) V7E (TDERSWEYSPLHYS)
DMS-derived PSSM value, averaged over the two overlapping peptides: 0.03883

TDERSWVYSPLHYSAQ L11F (TDERSWVYSPFHYSAQ)
DMS-derived PSSM value of the single-substitution variant: 0.02179

TDERSWVYSPLHYS(averaged) V7R (TDERSWRYSPLHYS)
DMS-derived PSSM value, averaged over the two overlapping peptides: 0.03163

TDERSWVYSPLHYSAQ H12G (TDERSWVYSPLGYSAQ)
DMS-derived PSSM value of the single-substitution variant: 0.06732

FPTDERSWVYSPLHYS Y15D (FPTDERSWVYSPLHDS)
DMS-derived PSSM value of the single-substitution variant: 0.1507

Ac-LADLIFTDSKLYIPLE-NH2 [TPTE2 wt]
NGS_counts log2_total (DMS-BM phage selection against TLN1 PTB, log2 of summed NGS counts): 8.69

TDERSWVYSPLHYS(averaged) S9E (TDERSWVYEPLHYS)
DMS-derived PSSM value, averaged over the two overlapping peptides: 0.002898

TDERSWVYSPLHYS(averaged) E3K (TDKRSWVYSPLHYS)
DMS-derived PSSM value, averaged over the two overlapping peptides: 0.02425

TDERSWVYSPLHYSAQ E3N (TDNRSWVYSPLHYSAQ)
DMS-derived PSSM value of the single-substitution variant: 0.0399

FPTDERSWVYSPLHYS V9F (FPTDERSWFYSPLHYS)
DMS-derived PSSM value of the single-substitution variant: 0.008665

TDERSWVYSPLHYSAQ P10Q (TDERSWVYSQLHYSAQ)
DMS-derived PSSM value of the single-substitution variant: 0.02435

FPTDERSWVYSPLHYS Y15E (FPTDERSWVYSPLHES)
DMS-derived PSSM value of the single-substitution variant: 0.04133

TDERSWVYSPLHYSAQ S5V (TDERVWVYSPLHYSAQ)
DMS-derived PSSM value of the single-substitution variant: 0.008572

FPTDERSWVYSPLHYS S11M (FPTDERSWVYMPLHYS)
DMS-derived PSSM value of the single-substitution variant: 0.09281

TDERSWVYSPLHYSAQ W6K (TDERSKVYSPLHYSAQ)
DMS-derived PSSM value of the single-substitution variant: 0.006269

TDERSWVYSPLHYS(averaged) S5H (TDERHWVYSPLHYS)
DMS-derived PSSM value, averaged over the two overlapping peptides: 0.03365

TDERSWVYSPLHYSAQ A15K (TDERSWVYSPLHYSKQ)
DMS-derived PSSM value of the single-substitution variant: 0

FPTDERSWVYSPLHYS R6L (FPTDELSWVYSPLHYS)
DMS-derived PSSM value of the single-substitution variant: 0.01712

FPTDERSWVYSPLHYS W8T (FPTDERSTVYSPLHYS)
DMS-derived PSSM value of the single-substitution variant: 0

TDERSWVYSPLHYSAQ Y13D (TDERSWVYSPLHDSAQ)
DMS-derived PSSM value of the single-substitution variant: 0.241

TDERSWVYSPLHYSAQ L11T (TDERSWVYSPTHYSAQ)
DMS-derived PSSM value of the single-substitution variant: 0.1092

TDERSWVYSPLHYSAQ E3Q (TDQRSWVYSPLHYSAQ)
DMS-derived PSSM value of the single-substitution variant: 0.01068

TDERSWVYSPLHYSAQ A15W (TDERSWVYSPLHYSWQ)
DMS-derived PSSM value of the single-substitution variant: 0.08214

TDERSWVYSPLHYSAQ W6E (TDERSEVYSPLHYSAQ)
DMS-derived PSSM value of the single-substitution variant: 0.004443

TDERSWVYSPLHYSAQ T1R (RDERSWVYSPLHYSAQ)
DMS-derived PSSM value of the single-substitution variant: 0.08446

TDERSWVYSPLHYS(averaged) P10F (TDERSWVYSFLHYS)
DMS-derived PSSM value, averaged over the two overlapping peptides: 0.03064

TDERSWVYSPLHYSAQ W6M (TDERSMVYSPLHYSAQ)
DMS-derived PSSM value of the single-substitution variant: 0

TDERSWVYSPLHYSAQ E3E
DMS-derived PSSM value of the single-substitution variant: 0.2011

FPTDERSWVYSPLHYS V9R (FPTDERSWRYSPLHYS)
DMS-derived PSSM value of the single-substitution variant: 0.02163

FPTDERSWVYSPLHYS S16K (FPTDERSWVYSPLHYK)
DMS-derived PSSM value of the single-substitution variant: 0

TDERSWVYSPLHYS(averaged) S14R (TDERSWVYSPLHYR)
DMS-derived PSSM value, averaged over the two overlapping peptides: 0.01172

TDERSWVYSPLHYSAQ E3T (TDTRSWVYSPLHYSAQ)
DMS-derived PSSM value of the single-substitution variant: 0.0286
